Drawing on DBAASP, this text covers MIC for two compounds.

What all share (assay): ≥ marks a high value that may be exact or a test limit, other limits are often not marked, values filed in µg/mL are converted to µM
The subject of test [1] is Erwinia amylovora PMV 6076.
Test [2] deals with Xanthomonas campestris pv. Vesicatoria 2133-2.
Test [3] concerns Pseudomonas syringae pv. syringae EPS 94.

Molecules are shown by their SMILES. ≈ marks a conversion by molar mass, not a printed value.

For orientation: MIC means the lowest concentration found to suppress growth. As to `CC[C@H](C)[C@H](NC(=O)CNC(=O)[C@H](CC(C)C)NC(=O)[C@H](Cc1ccc(O)cc1)NC(=O)[C@H](CCCCN)NC(=O)[C@H](CC(C)C)NC(=O)[C@@H](NC(=O)[C@H](CCCCN)NC(=O)[C@H](CCCCN)NC(=O)[C@H](Cc1ccccc1)NC(=O)[C@H](CC(C)C)NC(=O)[C@H](CCCCN)NC(=O)[C@@H](N)CCCCN)[C@@H](C)CC)C(=O)NCC(=O)N[C@@H](CCCCN)C(=O)N[C@@H](Cc1ccccc1)C(=O)N[C@@H](CC(C)C)C(=O)N[C@@H](Cc1cnc[nH]1)C(=O)N[C@@H](CO)C(=O)N[C@@H](C)C(=O)N[C@@H](CCCCN)C(=O)N[C@@H](CCCCN)C(=O)N[C@@H](CC(=O)O)C(=O)N[C@@H](CCC(=O)O)C(=O)N[C@@H](CC(C)C)C(=O)O` [KKLFKKILKYLGIGKFLHSAKKDEL], the MIC in test [1] is 6.12 µM (≈ 18 µg/mL); in test [2] it was 3.54 µM (≈ 10.4 µg/mL); in test [3] it was 3.54 µM (≈ 10.4 µg/mL).

As for `CC[C@H](C)[C@H](NC(=O)[C@H](CC(C)C)NC(=O)[C@H](C)NC(=O)[C@@H]1CCCN1C(=O)[C@H](CC(C)C)NC(=O)CNC(=O)[C@@H](NC(=O)[C@@H](NC(=O)[C@H](CC(C)C)NC(=O)[C@H](Cc1ccc(O)cc1)NC(=O)[C@H](CCCCN)NC(=O)[C@H](CC(C)C)NC(=O)[C@@H](NC(=O)[C@H](CCCCN)NC(=O)[C@H](CCCCN)NC(=O)[C@H](Cc1ccccc1)NC(=O)[C@H](CC(C)C)NC(=O)[C@H](CCCCN)NC(=O)[C@@H](N)CCCCN)[C@@H](C)CC)[C@@H](C)O)[C@@H](C)O)C(=O)N[C@@H](CO)C(=O)N[C@@H](Cc1c[nH]c2ccccc12)C(=O)N[C@@H](CCCCN)C(=O)N[C@@H](CC(=O)O)C(=O)N[C@@H](CCC(=O)O)C(=O)N[C@@H](CC(C)C)C(=O)O` [KKLFKKILKYLTTGLPALISWKDEL], the MIC in test [1] came out at 3.54 µM (≈ 10.4 µg/mL); in test [2], 1.77 µM (≈ 5.21 µg/mL); in test [3], 3.54 µM (≈ 10.4 µg/mL).
